# Several values for one entry are separate records, joined by “and”; a condition that tells them apart may be missing. Identical values can stand only once. For some of these results: Shown are results outside the selection of hits, which stands elsewhere. Inconclusive results are not listed. The list shows a part of the results, in another mix than the full data. Activity calls are given as the source filed them. Unless noted, the call rests on the fitted dose curve; in most records, active means well fitted curve in the direction sought with a large enough effect; inconclusive means small, poorly fitted or top-dose-only effect, or another doubt; inactive means no such curve, though single readings can be large; an effect the other way counts as inactive or inconclusive.
# By UniProt entry, the sequences of proteins in these tests, tags left out. Where a name states a change or a piece, a line headed by the entry shows the natural chain unless it says otherwise.
# UniProt P05177, whole entry, looked up: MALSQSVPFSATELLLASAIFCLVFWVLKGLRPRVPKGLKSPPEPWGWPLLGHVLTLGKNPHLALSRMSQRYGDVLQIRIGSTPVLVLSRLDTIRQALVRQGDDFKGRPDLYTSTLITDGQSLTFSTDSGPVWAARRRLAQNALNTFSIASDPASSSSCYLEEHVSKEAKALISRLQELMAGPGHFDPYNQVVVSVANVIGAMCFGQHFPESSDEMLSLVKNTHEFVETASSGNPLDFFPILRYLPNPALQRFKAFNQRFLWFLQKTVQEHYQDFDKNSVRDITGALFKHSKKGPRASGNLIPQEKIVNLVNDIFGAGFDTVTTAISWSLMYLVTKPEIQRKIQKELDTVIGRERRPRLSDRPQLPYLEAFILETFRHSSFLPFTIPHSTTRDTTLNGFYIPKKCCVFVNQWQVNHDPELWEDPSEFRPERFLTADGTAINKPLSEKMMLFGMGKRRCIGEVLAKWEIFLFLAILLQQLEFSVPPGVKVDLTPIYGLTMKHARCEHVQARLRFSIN
# UniProt P08482: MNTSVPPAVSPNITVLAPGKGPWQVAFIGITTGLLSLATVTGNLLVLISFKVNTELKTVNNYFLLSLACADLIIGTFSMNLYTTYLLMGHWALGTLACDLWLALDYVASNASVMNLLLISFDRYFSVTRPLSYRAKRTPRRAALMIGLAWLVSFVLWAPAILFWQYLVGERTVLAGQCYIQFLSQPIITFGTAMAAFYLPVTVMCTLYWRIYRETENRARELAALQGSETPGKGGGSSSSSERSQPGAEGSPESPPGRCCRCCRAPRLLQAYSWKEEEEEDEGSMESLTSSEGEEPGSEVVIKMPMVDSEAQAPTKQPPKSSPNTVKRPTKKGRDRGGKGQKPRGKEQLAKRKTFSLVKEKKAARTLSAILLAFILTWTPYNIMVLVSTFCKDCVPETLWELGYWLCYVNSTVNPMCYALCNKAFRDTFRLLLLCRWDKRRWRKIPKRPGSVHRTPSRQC
# UniProt P14618, whole entry, looked up: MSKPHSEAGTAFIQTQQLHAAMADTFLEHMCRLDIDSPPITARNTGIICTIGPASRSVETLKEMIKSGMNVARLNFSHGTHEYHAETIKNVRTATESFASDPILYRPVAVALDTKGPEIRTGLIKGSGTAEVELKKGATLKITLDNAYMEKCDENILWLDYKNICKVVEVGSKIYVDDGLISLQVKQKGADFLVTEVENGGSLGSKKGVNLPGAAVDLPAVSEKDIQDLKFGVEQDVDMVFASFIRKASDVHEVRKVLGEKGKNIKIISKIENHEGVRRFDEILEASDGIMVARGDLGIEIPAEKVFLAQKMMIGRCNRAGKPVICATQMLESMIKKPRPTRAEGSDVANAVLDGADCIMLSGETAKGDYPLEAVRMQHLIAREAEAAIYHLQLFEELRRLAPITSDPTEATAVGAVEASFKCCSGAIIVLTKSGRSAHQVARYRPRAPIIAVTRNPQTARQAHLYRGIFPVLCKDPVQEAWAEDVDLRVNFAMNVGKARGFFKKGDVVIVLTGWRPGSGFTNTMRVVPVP
# UniProt O89049, whole entry, looked up: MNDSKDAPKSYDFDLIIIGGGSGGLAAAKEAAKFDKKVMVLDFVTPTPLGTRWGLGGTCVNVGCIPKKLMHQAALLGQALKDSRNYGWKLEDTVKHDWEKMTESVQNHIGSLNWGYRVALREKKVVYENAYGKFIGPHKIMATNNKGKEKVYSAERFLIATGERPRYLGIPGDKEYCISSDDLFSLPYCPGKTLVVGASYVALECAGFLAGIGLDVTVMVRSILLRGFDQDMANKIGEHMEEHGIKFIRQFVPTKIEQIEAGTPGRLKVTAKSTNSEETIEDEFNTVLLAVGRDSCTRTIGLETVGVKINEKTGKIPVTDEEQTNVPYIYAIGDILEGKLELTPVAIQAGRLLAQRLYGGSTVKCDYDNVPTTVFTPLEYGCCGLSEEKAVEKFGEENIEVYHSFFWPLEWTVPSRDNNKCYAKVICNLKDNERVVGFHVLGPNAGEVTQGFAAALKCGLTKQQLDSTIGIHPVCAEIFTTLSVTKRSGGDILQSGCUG
# UniProt P21728, whole entry, looked up: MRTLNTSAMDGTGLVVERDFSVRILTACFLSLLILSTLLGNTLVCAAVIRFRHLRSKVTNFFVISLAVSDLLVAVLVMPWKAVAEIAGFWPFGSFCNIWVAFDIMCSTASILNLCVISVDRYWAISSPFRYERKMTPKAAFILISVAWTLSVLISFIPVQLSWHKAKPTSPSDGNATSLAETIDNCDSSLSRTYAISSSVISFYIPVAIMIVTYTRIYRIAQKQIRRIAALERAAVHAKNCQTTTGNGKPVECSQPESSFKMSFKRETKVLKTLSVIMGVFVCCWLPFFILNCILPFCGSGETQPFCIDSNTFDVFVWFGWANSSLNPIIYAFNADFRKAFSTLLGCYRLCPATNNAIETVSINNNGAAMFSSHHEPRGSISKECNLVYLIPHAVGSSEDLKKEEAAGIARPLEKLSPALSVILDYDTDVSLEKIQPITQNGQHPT
# UniProt Q9NUW8, whole entry, looked up: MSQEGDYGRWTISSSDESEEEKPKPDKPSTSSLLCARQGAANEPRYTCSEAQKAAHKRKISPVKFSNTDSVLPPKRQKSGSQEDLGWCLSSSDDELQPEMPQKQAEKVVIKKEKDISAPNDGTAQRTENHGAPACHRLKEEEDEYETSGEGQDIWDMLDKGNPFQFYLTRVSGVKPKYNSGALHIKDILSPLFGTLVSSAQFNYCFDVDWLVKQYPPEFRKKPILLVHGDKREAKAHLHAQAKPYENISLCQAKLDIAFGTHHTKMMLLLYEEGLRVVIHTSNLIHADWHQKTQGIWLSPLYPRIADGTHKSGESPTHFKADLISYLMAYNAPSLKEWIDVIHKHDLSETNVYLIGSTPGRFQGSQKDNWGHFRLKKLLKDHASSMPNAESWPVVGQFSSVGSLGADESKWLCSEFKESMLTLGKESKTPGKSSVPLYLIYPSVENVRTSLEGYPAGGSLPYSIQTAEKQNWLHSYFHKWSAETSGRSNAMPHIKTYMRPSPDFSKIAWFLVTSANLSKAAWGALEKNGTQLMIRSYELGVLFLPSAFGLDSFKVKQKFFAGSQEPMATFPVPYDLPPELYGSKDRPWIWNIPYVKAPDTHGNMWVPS
# UniProt Q96QE3: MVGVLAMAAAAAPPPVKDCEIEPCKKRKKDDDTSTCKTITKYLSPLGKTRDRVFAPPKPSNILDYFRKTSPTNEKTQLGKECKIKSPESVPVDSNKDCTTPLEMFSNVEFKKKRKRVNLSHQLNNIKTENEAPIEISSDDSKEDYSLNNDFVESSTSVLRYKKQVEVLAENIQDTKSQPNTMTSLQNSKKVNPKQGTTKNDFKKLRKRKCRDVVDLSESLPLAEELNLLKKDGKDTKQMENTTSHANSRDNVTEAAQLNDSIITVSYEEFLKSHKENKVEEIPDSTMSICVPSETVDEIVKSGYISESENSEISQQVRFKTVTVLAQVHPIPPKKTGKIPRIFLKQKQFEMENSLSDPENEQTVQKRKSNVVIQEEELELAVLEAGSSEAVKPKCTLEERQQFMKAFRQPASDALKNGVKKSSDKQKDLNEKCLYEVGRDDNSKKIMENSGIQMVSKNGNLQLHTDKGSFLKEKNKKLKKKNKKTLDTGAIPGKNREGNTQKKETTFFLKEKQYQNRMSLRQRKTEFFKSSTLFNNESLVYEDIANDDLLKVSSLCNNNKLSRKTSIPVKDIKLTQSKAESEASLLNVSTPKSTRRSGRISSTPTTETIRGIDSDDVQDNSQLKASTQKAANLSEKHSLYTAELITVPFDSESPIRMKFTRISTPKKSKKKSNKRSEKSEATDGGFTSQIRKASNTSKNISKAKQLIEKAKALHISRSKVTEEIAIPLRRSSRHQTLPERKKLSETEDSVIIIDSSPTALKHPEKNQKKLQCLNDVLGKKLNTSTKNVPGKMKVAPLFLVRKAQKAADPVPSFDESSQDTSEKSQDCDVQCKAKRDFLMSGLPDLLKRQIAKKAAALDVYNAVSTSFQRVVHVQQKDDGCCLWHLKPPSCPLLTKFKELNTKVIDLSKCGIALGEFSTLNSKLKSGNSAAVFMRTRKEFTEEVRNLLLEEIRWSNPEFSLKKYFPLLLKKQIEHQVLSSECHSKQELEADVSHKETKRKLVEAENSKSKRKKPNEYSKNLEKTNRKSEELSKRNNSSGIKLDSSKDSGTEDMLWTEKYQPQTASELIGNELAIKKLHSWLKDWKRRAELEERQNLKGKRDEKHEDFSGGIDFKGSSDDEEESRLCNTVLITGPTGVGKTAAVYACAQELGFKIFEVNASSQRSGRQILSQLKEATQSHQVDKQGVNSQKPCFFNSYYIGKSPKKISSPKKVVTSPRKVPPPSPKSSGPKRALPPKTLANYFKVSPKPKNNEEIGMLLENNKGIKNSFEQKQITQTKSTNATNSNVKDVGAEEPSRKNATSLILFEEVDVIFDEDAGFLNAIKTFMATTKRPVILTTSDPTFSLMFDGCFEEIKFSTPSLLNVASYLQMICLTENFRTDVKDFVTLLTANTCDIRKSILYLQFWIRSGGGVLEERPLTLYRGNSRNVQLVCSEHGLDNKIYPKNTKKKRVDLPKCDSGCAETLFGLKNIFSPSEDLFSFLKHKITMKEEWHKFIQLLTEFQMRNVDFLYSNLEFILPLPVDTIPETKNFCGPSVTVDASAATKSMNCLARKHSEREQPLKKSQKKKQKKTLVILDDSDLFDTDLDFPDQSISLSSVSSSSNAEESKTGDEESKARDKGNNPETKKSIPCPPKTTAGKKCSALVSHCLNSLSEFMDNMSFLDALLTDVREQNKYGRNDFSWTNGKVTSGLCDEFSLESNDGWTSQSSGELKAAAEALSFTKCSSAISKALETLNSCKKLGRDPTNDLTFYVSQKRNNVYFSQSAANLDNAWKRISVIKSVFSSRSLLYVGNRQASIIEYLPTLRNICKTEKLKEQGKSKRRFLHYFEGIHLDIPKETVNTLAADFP
# Tests used:
# MCC-13 = assay: qHTS assay to identify novel small-molecules to repurpose for Merkel cell carcinoma treatment (AID 1296009); conditions: MCC and control cell lines, CellTiter-Glo viability, 72 h; at 46 µM (top of the series); further: on the % scale 0 is the no-effect control and ±100 the full control effect; nearly all actives have a fitted effect of over 60% in size
# Method in brief: (§1)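 Cells exposed to NPC (8-point) and MIPE (11-point) compound dilutions for 72 hr at 37 degree celsius; viability read by CellTiter-Glo luminescence, normalized to no-cell and DMSO in-plate controls.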
# MCC-26 = assay: as above; conditions: MCC and control cell lines, CellTiter-Glo viability, 72 h; at 46 µM (top of the series)
# Method in brief: as §1
# MKL-1 = assay: as above; conditions: MCC and control cell lines, CellTiter-Glo viability, 72 h; at 46 µM (top of the series)
# Method in brief: as §1
# MKL-2 = assay: as above; conditions: MCC and control cell lines, CellTiter-Glo viability, 72 h; at 46 µM (top of the series)
# Method in brief: as §1
# UISO = assay: as above; conditions: MCC and control cell lines, CellTiter-Glo viability, 72 h; at 46 µM (top of the series)
# Method in brief: as §1
# WaGa = assay: as above; conditions: MCC and control cell lines, CellTiter-Glo viability, 72 h; at 46 µM (top of the series)
# Method in brief: as §1
# [1] = qHTS Assay for Lipid Storage Modulators (AID 1519; calls by dose curve; on activity change, negative = inhibition: on the % scale 0 is the no-effect control and ±100 the full control effect); conditions: Drosophila S3 cells, BODIPY lipid droplet/cell ratio, laser cytometry, cells loaded with oleic acid
# Method in brief: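 Cells seeded at 5,000 per well were treated with compounds over a concentration series and loaded with oleic acid (400 uM, as added). Lipid droplet fluorescence (488 nm excitation, 500-530 nm channel) was read by laser-scanning cytometry and normalized to 20 uM Triacsin C.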
# [2] = qHTS for differential inhibitors of proliferation of Plasmodium falciparum line D10 (AID 1877); conditions: at 28.7 µM (top of the series);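 further: parasites grown with compound for 72 h before DNA staining; plate controls were vehicle wells for no effect and reference inhibitor wells for full effect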
# [3] = qHTS Assay for Identifying Gametocytocidal Compounds (AID 743244);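 further: on the % scale 0 is the no-effect control and ±100 the full control effect; actives lower the fluorescent signal which means gametocytes are killed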; conditions: P. falciparum 3D7 stage III-V gametocytes, alamarBlue, 72 h; stronger effect = lower value
# Method in brief: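 Stage III-V P. falciparum 3D7 gametocytes, 20,000 per well, were exposed to compounds for 72 h at 37C, 5% CO2. AlamarBlue was then added for 24 h and viability was read as fluorescence at Ex 525/Em 598 nm.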
# [4] = target: Cytochrome P450 1A2 (Homo sapiens) (UniProt P05177); assay: p450-cyp1a2 (AID 410; calls by dose curve;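 further: -100% = full effect of reference inhibitor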); conditions: recombinant CYP1A2, luciferin-ME demethylation, luminescence; at 25.6 µM (top of the series)
# Method in brief: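 Inhibition was calculated relative to 57 uM furafylline (full inhibition). The reaction used human CYP1A2 at 20nM with Luciferin-ME at its Km, 100uM, driven by an NADPH-regenerating system for 60 min at room temperature.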
# [5] = target: Muscarinic acetylcholine receptor M1 (Rattus norvegicus) (UniProt P08482); assay: qHTS Assay for Antagonists of Acetylcholine Muscarinic M1 Receptor: Kinetic Measurement of Intracellular Calcium Response (AID 943); conditions: M1-expressing cells, kinetic intracellular calcium fluorescence; further: potency means the concentration at half of the fitted maximal effect; nearly all actives have a fitted effect of over 75% in size
# Method in brief: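 Intracellular calcium flux, recorded with Fluo-4 in a kinetic plate reader, served as signal; the response to carbachol at EC80 (100 nM final) was taken as maximal over minimal fluorescence after a 10 min compound pre-incubation in rat M1-CHO cells.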
# [6] = target: Muscarinic acetylcholine receptor M1 (Rattus norvegicus) (UniProt P08482); assay: qHTS Assay for Antagonists of Acetylcholine Muscarinic M1 Receptor: Measurement of IP-One Response (AID 944); conditions: CHO-M1 cells, IP-One HTRF, antagonist mode; further: potency means the concentration at half of the fitted maximal effect; nearly all actives have a fitted effect of over 75% in size
# Method in brief: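 Steps: plate transfected CHO-M1 cells overnight; add test compound, 10 min; add carbachol (200 nM, EC80) in stimulation buffer with LiCl; incubate 30 min; add labelled IP1 tracer and anti-IP1 antibody in lysis buffer; read HTRF after 10 min.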
# [7] = target: Pyruvate kinase PKM (Homo sapiens) (UniProt P14618); assay: qHTS Assay for Activators of Human Muscle Pyruvate Kinase (AID 954; active means well fitted curve in the direction sought with a large enough effect, not every such curve was filed as active;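 further: 0% = uninhibited enzyme and -100% = no enzyme or full thiadiazolimine inhibition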); conditions: purified human muscle pyruvate kinase, luciferase-coupled luminescence, 1 h; at 57.5 µM (top of the series)
# Method in brief: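 Purified human PKM2 (0.1 nM) with 0.5 mM PEP (Km) and 0.1 mM ADP in 50 mM imidazole pH 7.2, KCl, MgCl2, 1 h at room temperature; ATP formed read by coupled luciferase luminescence. Normalized to no-enzyme/110 uM thiadiazolimine inhibition; 0.3 nM enzyme column for activation.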
# [8] = target: Thioredoxin reductase 1, cytoplasmic (Rattus norvegicus) (UniProt O89049); assay: qHTS Assay for Inhibitors of Mammalian Selenoprotein Thioredoxin Reductase 1 (TrxR1) (AID 488773); conditions: purified TrxR1 enzyme activity; at 57.1 µM (top of the series);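 further: drop in NADPH fluorescence over an 8 min run after selenite addition; on the % scale 0 is the no-effect control and ±100 the full control effect; nearly all actives have a fitted effect of over 40% in size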
# Method in brief: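 Steps: enzyme (90 nM) plus NADPH (400 uM final), 5 min at ~22 deg C; compound added, 15 min; selenite (400 uM final) added; fluorescence followed for 8 min. Concentration-response curves derived from the normalized delta values.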
# [9] = target: D(1A) dopamine receptor (Homo sapiens) (UniProt P21728); assay: HTS Assay for Allosteric Agonists of the Human D1 Dopamine Receptor: Primary Screen for Potentiators (AID 488982); conditions: HEK293 T-REx D1 inducible cells, calcium flux, kinetic fluorescence; at 8.37 µM (top of the series); further: 0% is about no effect
# Method in brief: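 Tetracycline-induced HEK293 T-REx cells force-coupled to calcium signalling were incubated overnight at 30 C and dye-loaded at room temperature. Calcium flux over 180 s after compound addition flagged agonists; a further 180 s read after EC20 dopamine flagged potentiators.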
# [10] = target: D(1A) dopamine receptor (Homo sapiens) (UniProt P21728); assay: HTS Assay for Allosteric Agonists of the Human D1 Dopamine Receptor: Primary Screen for Antagonists (AID 488983); conditions: D1 receptor cell assay, antagonist mode, qHTS titration;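 further: calcium flux response to an EC80 dopamine challenge measured with no-wash dye; potency means the concentration at half of the fitted maximal effect; nearly all actives have a fitted effect of over 65% in size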
# Method in brief: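 Screening of inducible HEK293 T-REx D1 cells: compound first, EC80 dopamine 180 s later, each phase read kinetically for calcium over 180 s.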
# [11] = target: Tyrosyl-DNA phosphodiesterase 1 (Homo sapiens) (UniProt Q9NUW8); assay: Confirmation Assay for Inhibitors of Tyrosyl-DNA Phosphodiesterase (TDP1) (AID 489007); conditions: recombinant human TDP1 enzymatic activity, dose-response; further: potency means the concentration at half of the fitted maximal effect; nearly all actives have a fitted effect of over 40% in size
# Method in brief: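 Confirmation of primary-screen follow-ups in a qHTS format. Substrate cleavage by Tdp1 (1 nM) of a 3'-phosphotyrosine-FITC, 5'-biotin oligo (15 nM) was monitored as decreased AlphaScreen signal after a 5 min room-temperature reaction.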
# [12] = Validation screen for small molecules that induce genotoxicity in human embryonic kidney (HEK293T) cells expressing luciferase-tagged ELG1 (AID 493106); conditions: luminescence; at 46.1 µM (top of the series); further: 0% is about no effect
# Method in brief: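 Reporter-gene quantitative HTS in HEK293T cells carrying luciferase-tagged ELG1, whose level climbs under genotoxic stress. Compound exposure lasts 16 hr at 37 °C before luciferase detection.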
# [13] = target: ATPase family AAA domain-containing protein 5 (Homo sapiens) (UniProt Q96QE3); assay: Validation screen for small molecules that inhibit ELG1-dependent DNA repair in human embryonic kidney (HEK293T) cells expressing luciferase-tagged ELG1 (AID 493107); conditions: HEK293T ELG1-luciferase level, luminescence; 5-fluorouridine co-treatment, 16 h; further: potency means the concentration at half of the fitted maximal effect; nearly all actives have a fitted effect of over 70% in size
# Method in brief: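 Quantitative HTS in HEK293T cells carrying luciferase-tagged ELG1, stimulated with 5-fluorouridine alongside compound for 16 hr. Loss of luciferase signal marks inhibition of ELG1 response.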
# [14] = target: ATPase family AAA domain-containing protein 5 (Homo sapiens) (UniProt Q96QE3); assay: HTS assay for small molecules that inhibit ELG1-dependent DNA repair in human embryonic kidney (HEK293T) cells expressing luciferase-tagged ELG1: Hit Confirmation (AID 624248); conditions: HEK293T ELG1-luciferase levels, luminescence; cells co-treated with 5-fluorouridine; further: potency means the concentration at half of the fitted maximal effect; nearly all actives have a fitted effect of over 55% in size
# Method in brief: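 Cells (2,000/well) received 5-Fluorouridine plus pin-transferred compound or DMSO and were incubated 16 hr at 37 °C, 5% CO2. Luciferase activity was read by ONE-Glo luminescence after 30 min at room temperature; inhibitors suppress the signal.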
# [15] = target: ATPase family AAA domain-containing protein 5 (Homo sapiens) (UniProt Q96QE3); assay: qHTS screen for small molecules that inhibit ELG1-dependent DNA repair in human embryonic kidney (HEK293T) cells expressing luciferase-tagged ELG1: Hit Confirmation using MMS Stimulated ELG1 (AID 624249); conditions: HEK293T luciferase-tagged ELG1 level; further: potency means the concentration at half of the fitted maximal effect; nearly all actives have a fitted effect of over 60% in size
# Method in brief: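 Seed HEK293T ELG1-luc cells (2,000/well). Add compounds at ~5 h, then MMS to 10 µM final. Incubate 16 h. Measure luciferase using Amplight.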
# [16] = qHTS screen for small molecules that inhibit ELG1-dependent DNA repair: Hit Confirmation with 5FU Viability (AID 624250); conditions: cell viability with 5-FU; at 46.1 µM (top of the series);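 further: viability measured 16 h after compound addition; on the % scale 0 is the no-effect control and ±100 the full control effect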
# Method in brief: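 5-Fluorouridine (final 10 µM) was added alongside compounds to HEK293T cells carrying the ELG1-luc reporter, about 5 h after seeding. After 16 h, viable cells were quantified by CellTiter-Glo.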
# [17] = qHTS screen for small molecules that inhibit ELG1-dependent DNA repair: Hit Confirmation with MMS Viability (AID 624251); conditions: Cell viability with MMS; further: potency means the concentration at half of the fitted maximal effect; nearly all actives have a fitted effect of over 60% in size
# Method in brief: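 ELG1-luc HEK293T cells were plated, then about 5 h later received compounds by pin transfer plus MMS at 10 µM final. Viability was read by CellTiter-Glo luminescence after 16 h.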
compound,measurement,setting,value
Cc1nnc(NS(=O)(=O)c2ccc(N)cc2)s1,"activity change, negative = cytotoxicity",MCC-13,inactive: -3.19%
same,"activity change, negative = cytotoxicity",MCC-26,inactive: -9.18%
same,"activity change, negative = cytotoxicity",MKL-1,inactive: -4.83%
same,"activity change, negative = cytotoxicity",MKL-2,inactive: 6.98%
same,"activity change, negative = cytotoxicity",UISO,inactive: -4.52%
same,"activity change, negative = cytotoxicity",WaGa,inactive: -1.2%
Clc1ccc(N2CCN(Cc3c[nH]c4ncccc34)CC2)cc1,"activity change, negative = inhibition",[1]; at 57.5 µM (top of the series),inactive: -0.632%
same,max response,[1]; measured here: cell count channel max response,50.1%
same,max response,[1]; measured here: lipid channel max response,50.2%
same,"activity change, negative = inhibition",[2],inactive: -22.2%
same,max response,[3],inactive: 5.48%
O=C(O)CCCC[C@H]1SC[C@H]2NC(=O)N[C@@H]21,"activity change, negative = inhibition",[4],inactive: 15.5%
COc1ccccc1CNCCCCCCNCCCCCCCCNCCCCCCNCc1ccccc1OC,Potency,[5],active: 0.891 µM
same,Potency,[6],active: 3.55 µM
Cc1ccc(C(=O)O[C@@H](C(=O)O)[C@@H](OC(=O)c2ccc(C)cc2)C(=O)O)cc1 (tested in a mixture with another compound),"activity change, negative = inhibition",[7],inactive: -24.2%
COc1ccc([C@@H]2Sc3ccccc3N(CCN(C)C)C(=O)[C@@H]2OC(C)=O)cc1,"activity change, negative = inhibition",[8],inactive: 20.2%
CN1CCN(CCCN2c3ccccc3Sc3ccc(C(F)(F)F)cc32)CC1,"activity, positive = potentiation",[9],inactive: -80.8%
same,Potency,[10],active: 0.891 µM
O=C(O)C1=CC(=C(c2ccc(O)c(C(=O)O)c2)c2ccc(O)c(C(=O)O)c2)C=CC1=O,Potency,[11],active: 16.2 nM and active: 22.4 nM and active: 57.6 nM
Nc1ncn([C@@H]2O[C@H](CO)[C@@H](O)[C@H]2O)c(=O)n1,"activity change, positive = ELG1 induction",[12],inactive: -20.5%
same,Potency,[13],active: 8.2 µM
same,Potency,[14],active: 5.6 µM
same,Potency,[15],active: 1.25 µM
same,"activity change, negative = viability loss",[16],inactive: -5.21%
same,Potency,[17],active: 15.8 µM

# Source: PubChem BioAssay (NCATS)
